Common to all, as to assay: MTT assay on osteosarcoma cells
What all share (format): cell-based
(Formazan colour is commonly taken as a measure of viable cells.)

Assay [1] deals with SAOS-2 osteosarcoma cells. As to conditions: Homo sapiens, 48 hours, read-out: Inhibitory activity (IC50) SAOS-2.
The next assay relates to MG-63 osteosarcoma cells. As to conditions: Homo sapiens, 48 hours, read-out: Inhibitory activity (IC50) MG-63.
Assay [2] relates to MNNG/HOS osteosarcoma cells. The following applies: 48 hours, read-out: Inhibitory activity (IC50) MNNG/HOS.
Another assay deals with U2OS osteosarcoma cells. The following applies: Homo sapiens, 48 hours, read-out: Inhibitory activity (IC50) U2OS.

As to `Cc1cnc(Nc2ccc(N3CCN(C)CC3)cc2)nc1Nc1ccc2cn[nH]c2c1` [Compound 6g, N^4-(1H-indazol-6-yl)-5-methyl-N^2-(4-(4-methylpiperazine-1-yl)phenyl)pyrimidine-2,4-diamine], the IC50 in assay [1] was determined as 950 ± 1 nM; in the assay with MG-63 osteosarcoma cells, 958 ± 7 nM; in assay [2], 1400 ± 3 nM; in the assay with U2OS osteosarcoma cells, 552 ± 2.3 nM.

For the origin of these results see patent US20230312529A1, “PYRIMIDINE SMALL-MOLECULE COMPOUND AND APPLICATION THEREOF” (WENZHOU MEDICAL UNIVERSITY, priority 2021, published 2023).
